From patent EP0973746B1, “SUBSTITUTED 3-CYANO QUINOLINES” (Wyeth Holdings Corporation, priority 1997, dated 1998)
pIC50: −log10 of the molar value. Values after ≈ are worked out from the molar mass of the structure shown. Read-outs that look alike come from different tables or passages of the source.

Amino acid sequences for entries named in this document (tags omitted). Residues count along the entry.
UniProt P29317, 24-976, species assumed: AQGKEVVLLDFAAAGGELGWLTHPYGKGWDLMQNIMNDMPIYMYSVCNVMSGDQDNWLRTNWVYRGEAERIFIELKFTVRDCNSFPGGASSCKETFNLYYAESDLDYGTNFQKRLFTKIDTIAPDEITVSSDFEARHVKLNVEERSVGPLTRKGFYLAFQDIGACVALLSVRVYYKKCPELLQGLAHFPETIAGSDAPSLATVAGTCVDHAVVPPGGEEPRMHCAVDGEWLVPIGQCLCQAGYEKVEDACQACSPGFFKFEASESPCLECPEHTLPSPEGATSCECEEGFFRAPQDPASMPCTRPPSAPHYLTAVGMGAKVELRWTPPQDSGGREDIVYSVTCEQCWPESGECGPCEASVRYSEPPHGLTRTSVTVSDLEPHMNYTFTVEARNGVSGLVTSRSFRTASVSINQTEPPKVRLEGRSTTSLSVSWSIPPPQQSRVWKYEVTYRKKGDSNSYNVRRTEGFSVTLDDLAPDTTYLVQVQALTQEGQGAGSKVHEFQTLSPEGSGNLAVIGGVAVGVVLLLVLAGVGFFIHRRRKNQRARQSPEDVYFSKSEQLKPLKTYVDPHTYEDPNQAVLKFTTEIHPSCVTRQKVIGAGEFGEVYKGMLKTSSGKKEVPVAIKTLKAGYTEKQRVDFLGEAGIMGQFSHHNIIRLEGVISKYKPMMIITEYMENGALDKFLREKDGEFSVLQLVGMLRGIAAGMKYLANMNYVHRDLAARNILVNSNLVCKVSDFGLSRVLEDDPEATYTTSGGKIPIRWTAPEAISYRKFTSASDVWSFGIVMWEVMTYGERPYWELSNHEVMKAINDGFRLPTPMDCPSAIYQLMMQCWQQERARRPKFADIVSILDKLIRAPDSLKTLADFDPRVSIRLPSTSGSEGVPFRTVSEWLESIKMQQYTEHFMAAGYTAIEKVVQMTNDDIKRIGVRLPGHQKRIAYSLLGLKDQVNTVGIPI
UniProt P00533, 25-1210: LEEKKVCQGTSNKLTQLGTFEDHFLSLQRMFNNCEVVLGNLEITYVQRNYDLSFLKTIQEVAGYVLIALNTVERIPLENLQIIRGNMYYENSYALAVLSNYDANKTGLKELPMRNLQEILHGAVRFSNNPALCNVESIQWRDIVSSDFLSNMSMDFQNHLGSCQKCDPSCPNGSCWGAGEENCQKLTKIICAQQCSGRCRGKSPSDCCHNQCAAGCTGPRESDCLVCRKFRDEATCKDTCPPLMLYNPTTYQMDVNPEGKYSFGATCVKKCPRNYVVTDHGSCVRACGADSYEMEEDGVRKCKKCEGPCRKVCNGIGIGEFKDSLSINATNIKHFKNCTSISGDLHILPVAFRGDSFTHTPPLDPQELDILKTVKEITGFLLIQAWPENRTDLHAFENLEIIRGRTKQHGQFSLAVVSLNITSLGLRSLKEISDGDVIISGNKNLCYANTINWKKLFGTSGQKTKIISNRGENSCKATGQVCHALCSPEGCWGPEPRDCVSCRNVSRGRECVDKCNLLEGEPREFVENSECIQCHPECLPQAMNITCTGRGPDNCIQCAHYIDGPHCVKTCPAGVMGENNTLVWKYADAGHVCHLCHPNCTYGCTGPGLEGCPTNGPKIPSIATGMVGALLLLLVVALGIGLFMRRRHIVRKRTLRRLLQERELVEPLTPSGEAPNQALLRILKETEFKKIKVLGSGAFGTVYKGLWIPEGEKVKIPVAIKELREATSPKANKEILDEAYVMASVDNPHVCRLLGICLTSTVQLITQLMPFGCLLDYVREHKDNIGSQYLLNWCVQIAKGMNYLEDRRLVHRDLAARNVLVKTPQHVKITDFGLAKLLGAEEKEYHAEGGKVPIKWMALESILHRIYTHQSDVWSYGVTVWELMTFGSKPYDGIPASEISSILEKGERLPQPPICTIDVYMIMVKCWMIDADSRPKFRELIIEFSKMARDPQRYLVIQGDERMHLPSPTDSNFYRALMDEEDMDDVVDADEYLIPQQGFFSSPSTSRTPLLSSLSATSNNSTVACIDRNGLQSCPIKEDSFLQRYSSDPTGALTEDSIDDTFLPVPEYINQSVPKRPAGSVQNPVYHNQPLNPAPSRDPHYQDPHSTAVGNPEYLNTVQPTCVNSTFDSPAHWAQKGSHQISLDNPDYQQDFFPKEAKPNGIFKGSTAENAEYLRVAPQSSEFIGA
UniProt P00533, 669-1210: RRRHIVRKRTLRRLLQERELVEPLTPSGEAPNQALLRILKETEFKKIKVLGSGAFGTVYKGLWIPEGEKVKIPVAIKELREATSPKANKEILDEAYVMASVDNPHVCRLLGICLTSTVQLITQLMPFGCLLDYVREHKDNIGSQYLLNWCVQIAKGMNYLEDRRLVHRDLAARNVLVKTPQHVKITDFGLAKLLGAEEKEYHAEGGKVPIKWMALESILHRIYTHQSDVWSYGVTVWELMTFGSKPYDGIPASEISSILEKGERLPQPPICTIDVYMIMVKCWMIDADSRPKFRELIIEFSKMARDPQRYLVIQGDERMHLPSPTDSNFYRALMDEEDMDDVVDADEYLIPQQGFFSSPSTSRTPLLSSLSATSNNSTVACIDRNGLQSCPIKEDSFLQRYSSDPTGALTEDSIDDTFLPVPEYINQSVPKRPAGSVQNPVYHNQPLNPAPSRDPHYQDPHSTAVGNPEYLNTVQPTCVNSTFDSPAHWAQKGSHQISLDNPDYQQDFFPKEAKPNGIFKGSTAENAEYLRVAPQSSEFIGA
UniProt P35968, 834-1162 limits assumed: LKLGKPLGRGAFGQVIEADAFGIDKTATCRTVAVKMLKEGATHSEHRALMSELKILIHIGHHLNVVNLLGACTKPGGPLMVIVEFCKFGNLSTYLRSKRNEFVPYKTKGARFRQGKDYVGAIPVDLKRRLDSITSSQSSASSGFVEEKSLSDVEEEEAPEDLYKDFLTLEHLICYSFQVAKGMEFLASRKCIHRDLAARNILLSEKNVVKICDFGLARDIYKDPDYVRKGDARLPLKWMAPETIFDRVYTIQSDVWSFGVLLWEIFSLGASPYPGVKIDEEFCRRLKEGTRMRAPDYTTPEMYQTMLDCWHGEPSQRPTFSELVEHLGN

Columns and labels:
SW620 = assay: Inhibition of cancer cell growth as measured by cell number, SW620; type: cell-based, human; conditions: Homo sapiens, SW-620, 48 h, read-out: IC50 SW620, cell number, Sulforhodamine B, 48 hours exposure;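 further: SW620 was included as a cell line with little or no EGFR or HER2/neu expression, in contrast to receptor-overexpressing lines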
MCF7 = assay: Inhibition of cancer cell growth as measured by cell number, MCF7; type: cell-based; conditions: Homo sapiens, MCF7, 48 h, read-out: IC50 MCF7;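 further: MCF7 was included as a line with little or no EGFR or HER2/neu expression, in contrast to the receptor-overexpressing lines of the panel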
LOX = assay: Inhibition of cancer cell growth as measured by cell number, LOX; type: cell-based; conditions: Homo sapiens, 48 h;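 further: LOX cells served as a line with low or absent EGFR and HER2/neu expression, in contrast to receptor-overexpressing lines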
SKBR3 = assay: Inhibition of cancer cell growth as measured by cell number, SKBR3; type: cell-based, human; conditions: Homo sapiens, SK-BR-3, 48 h, read-out: IC50 SKBR3, cell number, Sulforhodamine B, 48 hours exposure;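 further: SK-BR-3 cells were selected as a line overexpressing HER2/neu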
A431 [1] = assay: Inhibition of cell growth by incorporation of [3H]-thymidine, A431; type: cell-based; conditions: Homo sapiens, A-431, read-out: IC50 A431
NHEK = assay: Inhibition of cell growth by incorporation of [3H]-thymidine, NHEK; type: cell-based; conditions: Homo sapiens, read-out: IC50 NHEK
HTB161 = assay: Inhibition of cancer cell growth as measured by cell number, HTB161; type: cell-based; conditions: Homo sapiens, 48 h, read-out: IC50 HTB161
A27805 = assay: Inhibition of cancer cell growth as measured by cell number, A27805; type: cell-based; conditions: Homo sapiens, 48 h, read-out: IC50 A27805
A2780DDP = assay: Inhibition of cancer cell growth as measured by cell number, A2780DDP; type: cell-based; conditions: Homo sapiens, 48 h, read-out: IC50 A2780DDP
MIP = assay: Inhibition of cancer cell growth as measured by cell number, MIP; type: cell-based; conditions: Homo sapiens, Sulforhodamine B, 48 hours exposure, Table 4
COLO205 = assay: Inhibition of cancer cell growth as measured by cell number, COLO205; type: cell-based; conditions: Homo sapiens, COLO 205, 48 h, read-out: IC50 COLO205
CX1 = assay: Inhibition of cancer cell growth as measured by cell number, CX1; type: cell-based; conditions: Homo sapiens, CX-1, 48 h, read-out: IC50 CX1
CACO2 = assay: Inhibition of cancer cell growth as measured by cell number, CACO2; type: cell-based; conditions: Homo sapiens, Caco-2, 48 h, read-out: IC50 CACO2
HCT15 = assay: Inhibition of cancer cell growth as measured by cell number, HCT15; type: cell-based; conditions: Homo sapiens, HCT-15, 48 h, read-out: IC50 HCT15
SW948 = assay: Inhibition of cancer cell growth as measured by cell number, SW948; type: cell-based; conditions: Homo sapiens, SW948, 48 h, read-out: IC50 SW948
CCL228 = assay: Inhibition of cancer cell growth as measured by cell number, CCL228; type: cell-based; conditions: Homo sapiens, 48 h, read-out: IC50 CCL228
LX1 = assay: Inhibition of cancer cell growth as measured by cell number, LX1; type: cell-based; conditions: Homo sapiens, LX-1, 48 h, read-out: IC50 LX1
A549 = assay: Inhibition of cancer cell growth as measured by cell number, A549; type: cell-based; conditions: Homo sapiens, A549, 48 h, read-out: IC50 A549
A431 [2] = assay: Inhibition of cancer cell growth as measured by cell number, A431; type: cell-based, human; conditions: for IC50: Homo sapiens, A-431, 48 h, read-out: IC50 A431, cell number, Sulforhodamine B, 48 hours exposure;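 on all read-outs here: human A431 line, picked because it overexpresses epidermal growth factor receptor (EGFR)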
DU145 = assay: Inhibition of cancer cell growth as measured by cell number, DU145; type: cell-based; conditions: Homo sapiens, DU-145, 48 h, read-out: IC50 DU145
PC3 = assay: Inhibition of cancer cell growth as measured by cell number, PC3; type: cell-based; conditions: Homo sapiens, PC-3, 48 h, read-out: IC50 PC3
LNCAP = assay: Inhibition of cancer cell growth as measured by cell number, LNCAP; type: cell-based; conditions: Homo sapiens, 48 h, read-out: IC50 LNCAP
HL60 = assay: Inhibition of cancer cell growth as measured by cell number, HL60; type: cell-based; conditions: Homo sapiens, HL-60, 48 h, read-out: IC50 HL60
[3] = biological target: Epithelial Cell Kinase (ECK) (Homo sapiens, UniProt P29317); assay: biochemical
B7474 = assay: Inhibition of cancer cell growth as measured by cell number, B7474; type: cell-based; conditions: Homo sapiens, 48 h, read-out: IC50 B7474
NEC = assay: Inhibition of cancer cell growth as measured by cell number, NEC; type: cell-based; conditions: Homo sapiens, 48 h, read-out: IC50 NEC
CCRF-CFM = assay: Inhibition of cancer cell growth as measured by cell number, CCRF-CFM; type: cell-based; conditions: Homo sapiens, 48 h, read-out: IC50 CCRF-CFM
[4] = biological target: epidermal growth factor receptor kinase (Homo sapiens, UniProt P00533); assay: biochemical
[5] = biological target: T1, His-tagged cytoplasmic domain of EGFR (Homo sapiens, UniProt P00533); assay: Inhibition of Epidermal Growth Factor Receptor Kinase (EGF-R) using recombinant enzyme; type: biochemical; conditions: RR-SRC peptide, average of the number of tests;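 further: radiometric kinase assay measuring radiolabeled phosphate transfer from ATP onto the peptide tyrosine by scintillation counting, control is reaction without compound, background subtracted, IC50 from dose-response curve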
T1 construct: containing the EGFR cDNA encoding amino acids 645 - 1186 preceded by Met-Ala-(His)6; made in house; host or cells: Sf9 cells, recombinant baculovirus vHcEGFR52

[6] = biological target: T2, Kinase insert Domain containing Receptor (KDR: the catalytic domain of the VEGF receptor) (Homo sapiens, UniProt P35968); assay: Inhibition of Kinase insert Domain containing Receptor (KDR); type: biochemical;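 further: KDR phosphorylating a Glu:Tyr 4:1 copolymer with P32- or P33-labelled ATP, Mg++ and vanadate, read as acid-insoluble radiolabel, compared with compound-free reaction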
T2 construct: KDR: the catalytic domain of the VEGF receptor

[7] = Eck IC50, pH 7.2, nonradioactive format

COc1ccc2c(Nc3cccc(Br)c3)c(C#N)cnc2c1 [Example 3, 4-[(3-Bromophenyl)amino]-7-methoxy-3-guinolinecarbonitrile]
IC50 (SW620; Table 4): 9.55 µg/mL (≈ 27 µM)
IC50 (MCF7): 6.17 µg/mL (≈ 17.4 µM)
IC50 (LOX; read-out: IC50 LOX): 1.42 µg/mL (≈ 4 µM)
IC50 (SKBR3; Table 7): 6.9 µg/mL (≈ 19.5 µM)

N#Cc1cnc2ccc(NC(=O)CCl)cc2c1Nc1cccc(Br)c1 [Example 19, N-[4-[(3-Bromophenyl)amino]-3-cyano-6-quinolinyl]-2-chloroacetamide]
IC50 (SW620; Table 4): 0.00648 µg/mL (≈ 0.0156 µM)
IC50 (MCF7): 0.0553 µg/mL (≈ 0.133 µM)
IC50 (SKBR3; Table 7): 0.0265 µg/mL (≈ 0.0637 µM)

N#Cc1cnc2ccc([N+](=O)[O-])cc2c1Nc1cccc(C(F)(F)F)c1 [Example 23, 6-Nitro-4[(3-trifluoromethylphenyl)amino]-3-quinolinecarbonitrile]
IC50 (MCF7): 47.9 µg/mL (≈ 134 µM)
IC50 (LOX; read-out: IC50 LOX): 7.92 µg/mL (≈ 22.1 µM)
IC50 (SKBR3; Table 7): 48 µg/mL (≈ 134 µM)

N#Cc1cnc2cc(O)c(O)cc2c1Nc1cccc(Br)c1 [Example 39, 4-[(3-Bromophenyl)amino]-6,7-dihydroxy-3-quinolinecarbonitrile]
IC50 (SW620; Table 4): 4.43 µg/mL (≈ 12.4 µM)
IC50 (LOX; read-out: IC50 LOX): 0.278 µg/mL (≈ 0.781 µM)
IC50 (SKBR3; Table 7): 3.65 µg/mL (≈ 10.2 µM)

N#Cc1cnc2cc3c(cc2c1Nc1cccc(Br)c1)OCO3 [Example 40, 8-[(3-Bromophenyl)amino]-[1,3]-dioxolo[4,5-g]quinoline-7-carbonitrile]
IC50 (SW620; Table 4): 2.26 µg/mL (≈ 6.15 µM)
IC50 (MCF7): 3.77 µg/mL (≈ 10.2 µM)
IC50 (LOX; read-out: IC50 LOX): 1.15 µg/mL (≈ 3.13 µM)
IC50 (SKBR3; Table 7): 3.6 µg/mL (≈ 9.77 µM)

COc1cc2ncc(C#N)c(Nc3cccc(C(F)(F)F)c3)c2cc1OC [Example 42, 4-[(3-Trifluoromethylphenyl)amino]-6,7-dimethoxy-3-quinolinecarbonitrile]
pIC50 (A431 [1]): 5.15
pIC50 (NHEK): 8.00
IC50 (HTB161): 5.18 µg/mL (≈ 13.9 µM)
IC50 (A27805): 6.43 µg/mL (≈ 17.2 µM)
IC50 (A2780DDP): 8.22 µg/mL (≈ 22 µM)
IC50 (MIP): 11 µg/mL (≈ 29.5 µM)
IC50 (COLO205): 5.97 µg/mL (≈ 16 µM)
IC50 (CX1): 9.13 µg/mL (≈ 24.5 µM)
IC50 (CACO2): 3.84 µg/mL (≈ 10.3 µM)
IC50 (HCT15): 6.71 µg/mL (≈ 18 µM)
IC50 (SW948): 17.2 µg/mL (≈ 46 µM)
IC50 (CCL228): 8.93 µg/mL (≈ 23.9 µM)
IC50 (LX1): 18.4 µg/mL (≈ 49.2 µM)
IC50 (A549): 7.57 µg/mL (≈ 20.3 µM)
IC50 (LOX; read-out: IC50 LOX, cell number, Sulforhodamine B, 48 hours exposure, Table 6): 5.15 µg/mL (≈ 13.8 µM)
IC50 (A431 [2]; Table 6): 3.28 µg/mL (≈ 8.79 µM)
IC50 (DU145): 5.56 µg/mL (≈ 14.9 µM)
IC50 (PC3): 29.1 µg/mL (≈ 77.9 µM)
IC50 (LNCAP): 2.39 µg/mL (≈ 6.41 µM)
IC50 (HL60): 5.43 µg/mL (≈ 14.5 µM)
pIC50 [3, 7]: < 4.27

COc1ccc(Nc2c(C#N)cnc3cc(OC)c(OC)cc23)cc1OC [Example 43, 4-[(3,4-Dimethoxyphenyl)amino]-6,7-dimethoxy-3-quinolinecarbonitrile]
pIC50 (A431 [1]): 5.00
pIC50 (NHEK): 5.40
IC50 (HTB161): 0.534 µg/mL (≈ 1.46 µM)
IC50 (A27805): 3.42 µg/mL (≈ 9.37 µM)
IC50 (A2780DDP): 4.45 µg/mL (≈ 12.2 µM)
IC50 (MIP): 3.3 µg/mL (≈ 9.02 µM)
IC50 (COLO205): 4.18 µg/mL (≈ 11.4 µM)
IC50 (CACO2): 2.58 µg/mL (≈ 7.06 µM)
IC50 (HCT15): 0.823 µg/mL (≈ 2.25 µM)
IC50 (SW948): 4.76 µg/mL (≈ 13 µM)
IC50 (B7474): 8.18 µg/mL (≈ 22.4 µM)
IC50 (LX1): 6.12 µg/mL (≈ 16.8 µM)
IC50 (A549): 5.72 µg/mL (≈ 15.7 µM)
IC50 (A431 [2]; Table 6): 1.21 µg/mL (≈ 3.31 µM)
IC50 (NEC): 4.55 µg/mL (≈ 12.5 µM)
IC50 (DU145): 3.13 µg/mL (≈ 8.57 µM)
IC50 (PC3): 7.02 µg/mL (≈ 19.2 µM)
IC50 (HL60): 1.66 µg/mL (≈ 4.53 µM)
IC50 (CCRF-CFM): 3.59 µg/mL (≈ 9.83 µM)
pIC50 [3, 7]: < 4.26
pIC50 [4]: 5.10

C=C(CN1CCOCC1)C(=O)Nc1ccc2ncc(C#N)c(Nc3ccc(F)c(Cl)c3)c2c1 [Example 148, N-{4-[(3-chloro-4-fluorophenyl)amino]-3-cyano-6-quinolinyl}-2-morpholin-4-ylmethyl-2-propenamide]
pIC50 [5]: 9.00
IC50 (A431 [2]; Table 8): 0.195 µg/mL (≈ 0.419 µM)
pIC50 [3, 7]: < 4.37

CCN(CC)CC#CC(=O)Nc1ccc2ncc(C#N)c(Nc3cccc(Br)c3)c2c1 [Example 187, N-[4-[(3-Bromophenyl)amino]-3-cyano-6-quinolinyl]-4-diethylamino-2-butynamide]
IC50 (MCF7): 0.42 µg/mL (≈ 0.882 µM)

CN(C)CC#CC(=O)Nc1ccc2ncc(C#N)c(Nc3ccc(F)c(Br)c3)c2c1 [Example 197, N-[4-[(3-Bromo-4-fluorophenyl)amino]-3-cyano-6-quinolinyl]-4-dimethylamino-2-butynamide]
IC50 (SW620; Table 8): 0.266 µg/mL (≈ 0.57 µM)
IC50 (SKBR3; Table 8): 0.197 µg/mL (≈ 0.422 µM)
pIC50 ([3]; Eck IC50): 4.37

CCOc1cc2ncc(C#N)c(Nc3cccc(Br)c3)c2cc1NC(=O)C=CCN(C)C [Example 216, 4-Dimethylamino-but-2-enoic acid [4-(3-bromo-phenylamino)-3-cyano-7-ethoxy-quinolin-6-yl]-amide]
pIC50 [5]: 9.22
IC50 (A431 [2]; Table 8): 0.032 µg/mL (≈ 0.0647 µM)
IC50 A431 (A431 [2]; cell number, Sulforhodamine B, 48 hours exposure, Table 8): 0.024 µg/mL (≈ 0.0485 µM)
pIC50 [3, 7]: < 4.39

CCOc1cc2ncc(C#N)c(Nc3cccc(Br)c3)c2cc1NC(=O)C=CCN1CCOCC1 [Example 218, 4-Morpholin-4-yl-but-2-enoic acid [4-(3-bromo-phenylamino)-3-cyano-7-ethoxy-quinolin-6-yl]-amide]
pIC50 [5]: 7.77
pIC50 [3, 7]: < 4.43

COc1cc2ncc(C#N)c(Nc3ccc(C)c(Br)c3)c2cc1OC [Example 248, 4-(3-Bromo-4-methyl-phenylamino)-6.7-dimethoxy-quinoline-3-carbonitrile]
pIC50 ([3]; Eck IC50): 4.60
pIC50 [6]: 4.60

COc1cc2ncc(C#N)c(Nc3cccnc3)c2cc1OC [Example 293, 6,7-Dimethoxy-4-(pyridin-3-ylamino)-quinoline-3-carbonitrile]
pIC50 ([3]; Eck IC50): 4.49
pIC50 [6]: 4.49
